From patent publication US6737064B2, “Method for the diagnosis of neoplastic tissue comprising administering a vasopermeability enhancing peptide of human interleukin-2” (The University of Southern California, priority 1996, dated 2004)

Key:
[1] = test system: Raji tumor-bearing nude mice; experiment: In vivo vasopermeability / biodistribution study, Raji lymphoma model (tumor uptake of 125I-Lym-1 F(ab')2 after pre-treatment); conditions: i.v., enhanced Lym-1 uptake relative to Lym-1/IL-2 conjugate, 30-40 pM of peptide per assay
Protocol: The Raji lymphoma cell line was used to produce heterotransplants in 6-week-old female nude mice by the subcutaneous injection of a 0.2 ml inoculum consisting of 4×10^7 Raji cells and 4×10^6 human fetal fibroblast feeder cells in the left thigh. Three days prior to injection, the mice were irradiated with 400 rads using a cesium irradiator to ensure a high take rate of the implanted cells. The tumors were grown for 14-18 days until they grew to approximately 1 cm in diameter.
To test the relative effects of the immunoconjugates on the biodistribution and tumor uptake of Lym-1 or TNT-1 in tumor-bearing mice, separate groups of 4-5 mice were given intravenous injections of 30 μg of antibody alone or antibody conjugate. At 2.5 hr after injection, each group received 50 μCi of ^125I-labeled Lym-1 or TNT-1 F(ab′)2 fragment as tracer.
All animals were sacrificed 72 hr later, by sodium pentobarbital overdose, for biodistribution analysis. Various organs, blood, and tumor were removed, weighed, and samples were counted in a gamma counter. For each mouse, data were expressed as tumor:organ ratio (cpm per gram tumor/cpm per gram organ) and percent injected dose/gram (% ID/g).
Based on the primary, secondary and tertiary structures of IL-2, a series of distinct peptides were synthesized in order to identify the sequences responsible for increased vascular permeability. […]

[2] = test system: K562, Daudi and P815 target cell lines; experiment: 51Cr release microcytotoxicity assays (induction of LAK cell killing); format: cell-based, human PBMC or murine splenocyte effectors; conditions: effectors activated 4 days; 13.7 pM or 80 pM PEP, 13.7 pM conjugates; effector:target 30:1, 10:1, 3.3:1
Protocol: The ability of PEP and PEP conjugates to induce LAK cell killing was tested by ^51Cr release microcytoxicity assays in 96-well microtiter plates as previously described (Katsanis, E., et al., Blood 78: 1286-1291 (1991). Two populations of effector cells were used, human peripheral blood mononuclear cells (PBMC) or murine splenocytes. The effector cells were isolated by Ficoll density gradient centrifugation and activated for 4 days in vitro in media containing 13.7 pM or 80 pM PEP, or 13.7 pM antibody/PEP or HSA/PEP conjugates at a density of 0.5×10^6 cells/ml. Freshly isolated effectors in media without human recombinant IL-2 were used as controls. Human cells were cultured in RPMI-1640 with 2 mM L-glutamine, 100 U/ml penicillin, 100 μg/ml streptomycin, and 10% fetal calf serum. Murine cells were grown in the same culture medium as above, but were supplemented with 10 mM non-essential amino acids, 100 mM sodium pyruvate, and 25 mM 2-mercaptoethanol (Sigma).
Three different tumor target cell lines were tested. PBMC effectors were tested against two malignant tumor target cell lines, K562 (NK sensitive) and Daudi (NK resistant). […]

[3] = test system: CTLL-2 IL-2 dependent indicator cell line; experiment: IL-2 bioassay (proliferation assay, 3H-thymidine); format: cell-based; conditions: 3-fold serial dilutions from 8.1 pM; 18 hr + 6 hr 3H-thymidine pulse
Protocol: The growth of an IL-2 dependent indicator cell line, CTLL-2, was used to compare the biologic activity of PEP, PEP conjugates, and positive control human recombinant IL-2. Samples of PEP, PEP conjugates, or IL-2 standards (100μ/well) were serially diluted 3-fold from an initial concentration of 8.1 pM (recombinant IL-2) in sterile 96-well flat bottom microtiter plates. CTLL cells (4×10^5) in a volume of 50 μl were added to each well. Plates were incubated for 18 hr in 5% CO2 at 37° C., then pulsed with 0.5 μCi of ^3H-thymidine for 6 hr (25 μl of a 1:50 dilution of 1.0 mCi in media; Amersham, Arlington Hts. Ill.) prior to harvesting wells onto glass fiber filter paper and liquid scintillation counting in glass minivials.

## IL-2: Recombinant human IL-2 (aa 1-133) from Hoffman La-Roche or Chiron
[1]
  Vasopermeability (% Lym-1/IL-2): 75 % Lym-1/IL-2
[2]
  induction of LAK cell killing of target cell lines: highly active
[3]
  support of proliferation of CTLL-2 T cell line: highly active
